Paper PMC8958505, “Discovery of Potential Neuroprotective Agents against Paclitaxel-Induced Peripheral Neuropathy” (Journal of Medicinal Chemistry, 2022)
Structures can show the parent of a compound that is named as a salt.

What was measured:
[1] = system: Purinergic P2Y, Non-Selective; test: LeadProfilingScreen: Purinergic P2Y, Non-Selective; format: binding, rat; details: 10 μM
[2] = target: Opiate µ (OP3, MOP) (Homo sapiens, UniProt P35372); test: LeadProfilingScreen: Opiate µ (OP3, MOP); format: binding
[3] = target: Prostanoid EP4 (Homo sapiens, UniProt P35408); test: LeadProfilingScreen: Prostanoid EP4; format: binding
[4] = system: Calcium Channel L-Type, Benzothiazepine; test: LeadProfilingScreen: Calcium Channel L-Type, Benzothiazepine; format: binding, rat; details: 10 μM
[5] = target: Serotonin (5-Hydroxytryptamine) 5-HT2B (Homo sapiens, UniProt P41595); test: LeadProfilingScreen: Serotonin 5-HT2B; format: binding; details: read-out: Inhibition (%), Serotonin (5-Hydroxytryptamine) 5-HT2B
From the text: (§1) LeadProfilingScreen (Total # of Assays: 67)
(§2) To evaluate, in LeadProfilingScreen, the activity of test compound CN168 (Panlabs # 1251879). […]
(§3) Summary of Significant Results
(§4) Biochemical assay results are presented as the percent inhibition of specific binding or activity throughout the report.
(§5) All other results are expressed in terms of that assay's quantitation method.
(§6) • For primary assays, only the lowest concentration with a significant response judged by the assays' criteria, is […]
(§7) • Where applicable, either the secondary assay results with the lowest dose/concentration meeting the significance […]
(§8) • Unless otherwise requested, primary screening in duplicate with quantitative data (e.g., IC50 ± SEM, Ki ± SEM and nH) are shown where applicable for individual requested assays. In screening packages, primary screening in duplicate with semi-quantitative data (e.g., estimated IC50, Ki and nH) are shown where applicable (concentration range of 4 log units); available secondary functional assays are carried out ([…]) and MEC or MIC determined only if active in primary assays >50% at 1 log unit below initial test concentration. […]

[6] = target: Adrenergic α1D (Homo sapiens, UniProt P25100); test: LeadProfilingScreen: Adrenergic α1D; format: binding
[7] = system: Calcium Channel L-Type, Dihydropyridine; test: LeadProfilingScreen: Calcium Channel L-Type, Dihydropyridine; format: binding, rat; details: 10 μM
[8] = system: proinflammatory cytokines and chemokines; test: Systemic mouse cytokine and chemokine detection; format: in vivo; details: pretreatment; day 14 after first paclitaxel injection
Protocol: Samples were obtained from C57BL/6J female mice before and 14 days after the first course of treatment. The blood samples were obtained from the submandibular vein and then centrifuged at 3000 rpm for 15 min at 4 °C to yield plasma. Mouse cytokines/chemokines were quantified using Magnetic Bead 32-Multiplex Panel (Millipore, MCYTMAG-70K-PX32). Statistical significance was analyzed using two-way ANOVA, with p < 0.05 considered significant.

[9] = target: Bradykinin B2 (Homo sapiens, UniProt P30411); test: LeadProfilingScreen: Bradykinin B2; format: binding
[10] = target: T1, hERG (Homo sapiens, UniProt Q12809); test: LeadProfilingScreen: Potassium Channel hERG; format: binding
[11] = target: Potassium Channel [KATP] (Cricetus cricetus, UniProt Q09427); test: LeadProfilingScreen: Potassium Channel [KATP]; format: binding, hamster; details: read-out: Inhibition (%), Potassium Channel [KATP]
From the text: as §1, §2, §3, §4, §5, §6, §7, §8

[12] = target: T2, CYP 2C19 (Homo sapiens, UniProt P33261); test: Cytochrome P450 testing, CYP 2C19; format: in vitro ADME; details: mephenytoin 4-hydroxylation; read-out: Concentration of inhibition (IC50), CYP 2C19
T2 construct: host or cells: baculovirus-infected insect cells (supersomes)
From the text: Cytochrome P450 testing of CN016
The effects of CN016 on the activity of six specific human liver cytochrome P450 isozymes (CYP 1A2, 2C9, 2C19, 2D6, 2E1, 3A4) expressed in baculovirus-infected insect cell supersomes were studied. The reactions used to measure the activity of these enzymes were phenacetin O-deethylation (1A2), diclofenac 4-hydroxylation (2C9), mephenytoin 4-hydroxylation (2C19), dextromethorphan O-demethylation (2D6), chlorzoxazone 6-hydroxylation (2E1) and testosterone 6-hydroxylation (3A4).
Furafylline, sulfaphenazole, tranylcypromine, quinidine, diethyldithiocarbamate and azamulin were used as reference inhibitors of these enzymes. Incubation mixtures containing no CN016 or reference inhibitors were used as controls. The tested result […]
Table S4. Result of Cytochrome P450 testing of CN016

[13] = target: Dopamine D2S (Homo sapiens, UniProt P14416); test: LeadProfilingScreen: Dopamine D2S; format: binding
[14] = target: Glutamate, NMDA, Glycine (Rattus norvegicus, UniProt P35439); test: LeadProfilingScreen: Glutamate, NMDA, Glycine; format: binding
[15] = target: T1, hERG; test: hERG patch-clamp assay (hERG-CHO, automated patch-clamp); format: cell-based; parameters: host or cells: CHO (hERG-CHO)
Protocol: CN016 were tested in the hERG (hERG-CHO, automated patch-clamp) assay and determined at Eurofins Panlabs (Missouri, USA). The experiment was accepted in accordance with Eurofins validation Standard Operating Procedure. The tested result […]
Table S3. Result of hERG patch-clamp assay of CN016

[16] = target: Sigma σ1 (Homo sapiens, UniProt Q99720); test: LeadProfilingScreen: Sigma σ1; format: binding
[17] = target: Histamine H2 (Homo sapiens, UniProt P25021); test: LeadProfilingScreen: Histamine H2; format: binding
[18] = system: sciatic nerve fibers; test: Ultrastructure evaluation of the sciatic nerve (TEM); format: in vivo, mouse
From the text: Sciatic nerves were isolated from mice after drug treatment and behavioral tests to examine the ultrastructure of nerve fibers. […] To evaluate the integrity of myelin, we calculated the G-ratio (axon perimeter/myelin perimeter) in different treatment groups. Because the symptoms of PIPN mostly manifest with sensory impairment,[28] we roughly classified nerve fibers into larger fibers (diameter > 5 μm) and small fibers (diameter < 5 μm) depending on the type of sensory information conveyed.[29] Large fibers with greater than 5 μm diameter carry information related to proprioception, touch, and pressure. In contrast, small fibers with less than 5 μm diameter carry information related to temperature and pain.
Sciatic nerve samples from mice from each treatment group were isolated after the last time point of mouse behavioral tests. Fixation of sciatic nerves with 4% glutaraldehyde and post fixation with 1% osmium tetroxide solution at 4 °C were performed. […] Transmission electron microscopy (H7650, Hitachi) was used to observe the ultrastructure in the cross section of the sciatic nerves.

[19] = target: Calcium Channel N-Type (Rattus norvegicus, UniProt Q02294); test: LeadProfilingScreen: Calcium Channel N-Type; format: binding
[20] = system: panel of selected 67 commercially available receptors and enzymes; test: 67 off-target study (LeadProfilingScreen), whole panel; format: binding; details: 10 μM
From the text: as §1, §2, §3, §4, §5, §6, §7, §8

O=P(O)(O)CCN1CCC(Nc2cc(N3CCOCC3)nc(NCc3cn(CCCO)nn3)n2)CC1 [CN016, {2-[4-(2-{[1-(3-Hydroxy-propyl)-1H-[1,2,3]triazol-4-ylmethyl]-amino}-6-morpholin-4-yl-pyrimidin-4-ylamino)-piperidin-1-yl]-ethyl}-phosphonic Acid Hydrobromide Salt]
Inhibition (%), Purinergic P2Y [1]: 9%
inhibition at 10 µM [2]: 1%
inhibition at 10 µM [3]: 4%
Inhibition (%), Calcium Channel L-Type, Benzothiazepine [4]: -13%
inhibition at 10 µM [5]: 10%
inhibition at 10 µM [6]: -6%
Inhibition (%), Calcium Channel L-Type, Dihydropyridine [7]: 14%
proinflammatory cytokines and chemokines in plasma [8]: significant decrease
inhibition at 10 µM [9]: -4%
inhibition at 10 µM [10]: -3%
inhibition at 10 µM [11]: -1%
IC50 [12]: > 100 µM
inhibition at 10 µM [13]: 3%
inhibition at 10 µM [14]: -5%
inhibition at 1 µM ([15]; human, CHO cells that express hERG (hERG-CHO), 1 μM): 6%
inhibition at 10 µM ([15]; human, CHO cells that express hERG (hERG-CHO), 10 μM): 19.1%
inhibition at 100 µM ([15]; human, CHO cells that express hERG (hERG-CHO), 100 μM): 32.9%
hERG liability ([15]; up to 100 μM, patch-clamp): not observed
inhibition at 10 µM [16]: 0%
inhibition at 10 µM [17]: 0%
myelinated fiber density of sciatic nerve (restoration of fiber loss) ([18]; dose-dependent, particularly at 20 mg/kg): significantly restored
integrity of large fibers (diameter > 5 μm) of sciatic nerve ([18]; paclitaxel with pretreated CN016 5, 10 and 20 mg/kg): did not affect the integrity of large fibers
G-ratio in small fibers (diameter < 5 μm) of sciatic nerve ([18]; pretreated, particularly at 10 or 20 mg/kg, paclitaxel-treated mice): could rescue the observed axonal damage
proportion of atypical mitochondria in sciatic nerve ([18]; pretreatment, paclitaxel-treated mice): significantly decreased
inhibition at 10 µM [19]: 1%
Significant responses (≥ 50% inhibition or stimulation) in the primary assays [20]: No significant results noted
inhibitory activity for each tested item of the 67 panel [20]: < 20%
